Values quoted from earlier work in publication PMC4230996 (Journal of Medicinal Chemistry, 2014).

Tested on: human mGlu4
Conditions: read-out: IC50 (binding affinity to mGlu4); human mGlu4, Merck's patent; cited from earlier work

Question: Which IC50 does the source give for O=C(Nc1ccc(N2C(=O)c3cccc(F)c3C2=O)c(Cl)c1)c1ccccn1 [Compound 3, N-(3-Chloro-4-(4-fluoro-1,3-dioxoisoindolin-2-yl)phenyl)-2-picolinamide] here?
Answer: 36 nM
